Earlier results on 1 substance are cited in PMC10080908.

By UniProt entry, the sequences of proteins in these tests, tags left out. Residues count along the entry.
UniProt Q6ZNA4, 939-986: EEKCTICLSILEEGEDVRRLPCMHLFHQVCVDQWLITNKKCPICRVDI
UniProt P62837, whole entry: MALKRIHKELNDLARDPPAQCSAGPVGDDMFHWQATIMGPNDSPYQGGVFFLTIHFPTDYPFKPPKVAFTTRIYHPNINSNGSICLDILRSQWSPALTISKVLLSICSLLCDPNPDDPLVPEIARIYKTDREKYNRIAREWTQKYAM

For this data set, the target named is RNF111 RING (Homo sapiens) (UniProt Q6ZNA4). Particulars: cited from earlier work.

In the case of UBE2D2 (from UniProt P62837), the Kd was 1000 nM.
